From paper PMC12102759 come the findings set out here.

The chains are these.
B1: MBOAT1 peptide 17-32 (Lysophospholipid acyltransferase 1), 16-mer library wild type / USP7 MATH (USP7 MATH domain, residues 53-206) (parent)
chain 1: STYLHPLSELLGIPLD
chain 2: NTAEEDMEDDTSWRSEATFQFTVERFSRLSESVLSPPCFVRNLPWKIMVMPRFYPDRPHQKSVGFFLQCNAESDSTSWSCHAQAVLKIINYRDDEKSFSRRISHLFFHKENDWGFSNFMAWSEVTDPEKGFIDDDKVTFEVFVQADAPHGVAWD
B2: AZIN2 peptide 1-16 (Antizyme inhibitor 2), 16-mer library wild type / USP7 MATH (USP7 MATH domain, residues 53-206) (parent)
chain 1: MAGYLSESDFVMVEEG
chain 2: B1 chain 2

The variants in the first experiment derive from B1. Kind of experiment: proteomic peptide phage display deep mutational scan (ProP-PD DMS): M13 P8 16-mer library selected against immobilised GST-tagged bait for four days (rounds), NGS of the eluted pools per day and pseudo-replica. The following applies: with USP7 MATH (USP7 MATH domain, residues 53-206); bait immobilised on MaxiSorp plates (10 µg), library pre-cleared on GST, 2 h binding at 4 °C, five washes; one round per day, days 1-4; value from days 2 and 3; keep out of graded; scale: average fractional NGS count over selection days 2 and 3.
Take chain 1 I13T: the screen value stood at 0.00016.

For chain 1 I13L, the screen value was determined as 0.00171.

Turning to chain 1 I13D, the screen value was 0.

With chain 1 I13N, the screen value worked out at 0.

In the case of chain 1 I13F, the screen value was determined as 0.000169.

On to chain 1 I13Q, for which the screen value was 0.00251.

For the variant chain 1 I13H, the screen value came out at 8.7e-05.

As to chain 1 I13Y, the screen value worked out at 0.00153.

On to chain 1 I13G, for which the screen value came to 8.6e-06.

On to chain 1 S8N, for which the screen value was 0.

Turning to chain 1 S8G, the screen value turned out to be 0.

On to chain 1 S8P, for which the screen value came to 0.

For chain 1 G12P, the screen value worked out at 5.99e-05.

As to chain 1 G12Q, the screen value was found to be 0.000621.

For the variant chain 1 G12H, the screen value amounted to 0.000403.

In the case of chain 1 G12K, the screen value was 0.

For chain 1 G12M, the screen value was determined as 5.33e-05.

With chain 1 G12Y, the screen value is 1.55e-05.

For chain 1 G12F, the screen value is 1.43e-05.

Regarding chain 1 G12T, the screen value turned out to be 0.00144.

chain 1 G12I: the screen value stood at 0.

Consider chain 1 G12W, for which the screen value was determined as 2.65e-05.

chain 1 G12N: the screen value turned out to be 6.89e-05.

As for chain 1 G12D, the screen value was 0.

Take chain 1 G12S: the screen value was determined as 0.000155.

For the variant chain 1 G12A, the screen value was determined as 0.00987.

For the variant chain 1 G12R, the screen value worked out at 6.19e-05.

With chain 1 L10P, the screen value came to 0.

Take chain 1 L10W: the screen value worked out at 1.04e-05.

With chain 1 L10H, the screen value was determined as 0.00014.

Take chain 1 L10M: the screen value stood at 0.000356.

In the case of chain 1 L10D, the screen value turned out to be 6.69e-06.

As to chain 1 L10Y, the screen value stood at 0.133.

Take chain 1 L10F: the screen value is 0.002.

For chain 1 L10S, the screen value stood at 3.94e-05.

Take chain 1 L4T: the screen value came to 2.04e-05.

Consider chain 1 L4H, for which the screen value is 4.32e-05.

With chain 1 L4W, the screen value is 0.000444.

Regarding chain 1 L4Y, the screen value turned out to be 0.000455.

chain 1 L4M: the screen value came out at 6.6e-05.

chain 1 L4S: the screen value came out at 0.

Turning to chain 1 L4P, the screen value was determined as 0.000124.

For chain 1 L4V, the screen value is 5.14e-05.

Regarding chain 1 L4I, the screen value is 0.00767.

For chain 1 L4N, the screen value was found to be 0.

On to chain 1 L4D, for which the screen value worked out at 0.

chain 1 L4A: the screen value was found to be 1.8e-05.

On to chain 1 P14Y, for which the screen value was determined as 6.69e-06.

Consider chain 1 P14Q, for which the screen value stood at 2.39e-05.

For chain 1 P14E, the screen value worked out at 6.79e-05.

As for chain 1 P14M, the screen value worked out at 0.00152.

chain 1 P14F: the screen value is 0.

chain 1 P14N: the screen value was 1.04e-05.

With chain 1 P14D, the screen value stood at 7.26e-05.

As for chain 1 P14V, the screen value was found to be 6.69e-06.

As for chain 1 P14G, the screen value worked out at 1.93e-05.

In the case of chain 1 P14H, the screen value is 0.

In the case of chain 1 P14W, the screen value came out at 0.

As to chain 1 P14L, the screen value is 0.

For the variant chain 1 P14I, the screen value came to 1.04e-05.

In the case of chain 1 P14A, the screen value turned out to be 0.00152.

With chain 1 L7I, the screen value was found to be 0.

On to chain 1 L7W, for which the screen value worked out at 0.

In the case of chain 1 L7M, the screen value stood at 0.

Consider chain 1 L7Y, for which the screen value stood at 0.

chain 1 H5L: the screen value came to 0.

With chain 1 H5M, the screen value came out at 0.

For the variant chain 1 H5F, the screen value worked out at 0.

chain 1 H5Q: the screen value was found to be 0.

For the variant chain 1 H5S, the screen value came out at 2.39e-05.

Regarding chain 1 H5T, the screen value was determined as 0.

As to chain 1 H5N, the screen value was 0.00442.

Regarding chain 1 Y3G, the screen value is 0.000373.

Turning to chain 1 Y3Q, the screen value was determined as 1.16e-05.

Regarding chain 1 Y3E, the screen value turned out to be 1.45e-05.

On to chain 1 Y3P, for which the screen value worked out at 0.000475.

Take chain 1 Y3K: the screen value was 0.

Take chain 1 Y3H: the screen value came to 8.51e-05.

Consider chain 1 Y3N, for which the screen value was 2.33e-05.

chain 1 Y3F: the screen value stood at 0.

chain 1 Y3T: the screen value stood at 1.61e-05.

Consider chain 1 Y3D, for which the screen value was 0.000183.

chain 1 Y3S: the screen value amounted to 3.01e-05.

In the case of chain 1 Y3A, the screen value was found to be 0.00209.

On to chain 1 Y3M, for which the screen value stood at 4.01e-05.

chain 1 Y3W: the screen value stood at 0.

Consider chain 1 Y3I, for which the screen value stood at 0.

In the case of chain 1 S1D, the screen value was 0.000374.

In the case of chain 1 S1A, the screen value came to 0.000139.

As to chain 1 S1E, the screen value was 0.000118.

As for chain 1 S1Q, the screen value was 0.000128.

chain 1 S1F: the screen value is 0.000299.

As for chain 1 S1V, the screen value was determined as 0.00194.

Regarding chain 1 S1H, the screen value was 0.000193.

With chain 1 S1N, the screen value amounted to 0.0012.

Turning to chain 1 S1K, the screen value stood at 0.

Regarding chain 1 S1W, the screen value was determined as 0.000375.

With chain 1 S1L, the screen value is 4.85e-05.

As to chain 1 S1M, the screen value is 1.74e-05.

chain 1 S1I: the screen value turned out to be 0.000136.

With chain 1 S1T, the screen value turned out to be 3.24e-05.

With chain 1 S1Y, the screen value is 0.00384.

With chain 1 S1R, the screen value was found to be 0.

For the variant chain 1 S1P, the screen value was 0.000172.

Take chain 1 T2L: the screen value came out at 6.5e-05.

With chain 1 T2H, the screen value was found to be 1.82e-05.

Turning to chain 1 T2F, the screen value is 0.00112.

For chain 1 T2W, the screen value turned out to be 9.63e-06.

Regarding chain 1 T2S, the screen value is 2.98e-05.

Take chain 1 T2I: the screen value was determined as 2.33e-05.

With chain 1 T2P, the screen value stood at 9.63e-06.

For chain 1 T2V, the screen value came out at 0.000358.

On to chain 1 T2D, for which the screen value is 0.00105.

As for chain 1 T2M, the screen value was found to be 0.

As to chain 1 T2K, the screen value was determined as 0.

With chain 1 T2Q, the screen value amounted to 2.12e-05.

Regarding chain 1 T2A, the screen value came out at 1.45e-05.

Take chain 1 T2E: the screen value came to 0.

chain 1 T2Y: the screen value turned out to be 0.00203.

On to chain 1 T2R, for which the screen value was 0.

Turning to chain 1 L11V, the screen value amounted to 2.33e-05.

Take chain 1 L11W: the screen value was found to be 0.0649.

On to chain 1 L11Q, for which the screen value is 0.

On to chain 1 L11F, for which the screen value was 3.52e-05.

Turning to chain 1 L11S, the screen value came to 9.4e-06.

In the case of chain 1 L11I, the screen value stood at 0.000136.

With chain 1 L11H, the screen value amounted to 0.

For chain 1 L11Y, the screen value is 0.00517.

In the case of chain 1 L11A, the screen value worked out at 0.000148.

With chain 1 L11M, the screen value is 1.26e-05.

Turning to chain 1 L11R, the screen value was 9.83e-05.

Turning to chain 1 L11N, the screen value came out at 4.27e-05.

Regarding chain 1 L15F, the screen value was 0.00201.

Turning to chain 1 L15M, the screen value came out at 8.73e-05.

With chain 1 L15V, the screen value was determined as 0.000652.

Regarding chain 1 L15I, the screen value amounted to 0.000175.

For chain 1 L15Q, the screen value is 0.

For chain 1 L15A, the screen value was found to be 2.33e-05.

With chain 1 L15G, the screen value was 8.36e-05.

For the variant chain 1 L15P, the screen value amounted to 0.

With chain 1 L15Y, the screen value was found to be 0.000946.

As to chain 1 L15W, the screen value was 8.63e-05.

As for chain 1 L15T, the screen value turned out to be 9.88e-05.

chain 1 L15H: the screen value was found to be 0.

As to chain 1 P6E, the screen value was found to be 0.

In the case of chain 1 E9L, the screen value is 0.

Take chain 1 E9P: the screen value turned out to be 0.

For chain 1 E9S, the screen value turned out to be 0.

On to chain 1 E9Y, for which the screen value is 6.69e-06.

Regarding chain 1 E9I, the screen value stood at 0.

In the next experiment the parent is B2. The description is as above. The note with it: with USP7 MATH (USP7 MATH domain, residues 53-206); bait immobilised on MaxiSorp plates (10 µg), library pre-cleared on GST, 2 h binding at 4 °C, five washes; one round per day, days 1-4; value from days 2 and 3; keep out of graded; scale: average fractional NGS count over selection days 2 and 3.
Turning to chain 1 E15D, the screen value worked out at 1.04e-05.

In the case of chain 1 E15P, the screen value worked out at 0.

With chain 1 E15A, the screen value was determined as 0.

chain 1 A2S: the screen value turned out to be 0.

In the case of chain 1 A2T, the screen value is 0.

As for chain 1 A2M, the screen value came to 0.

Take chain 1 A2D: the screen value was determined as 0.

As for chain 1 D9R, the screen value is 3.97e-05.

As to chain 1 D9Y, the screen value was determined as 3.24e-05.

On to chain 1 D9S, for which the screen value is 4.99e-05.

As to chain 1 D9I, the screen value was determined as 3.24e-05.

Take chain 1 D9T: the screen value turned out to be 3.12e-05.

Take chain 1 E14H: the screen value came to 0.

Consider chain 1 E14V, for which the screen value was found to be 0.

chain 1 E14T: the screen value was determined as 1.42e-05.

Take chain 1 E7A: the screen value came out at 0.

With chain 1 E7K, the screen value was 4.9e-05.
